Patent US9701959B2, “High throughput screen for biologically active polypeptides” (Invenra Inc., priority 2012, dated 2017)

Chains of the proteins cited; added tags and fusions are not shown. A line that says so, or that is headed by a name, gives the form on record, which may keep a tag or linker.
UniProt P01375, with tags, fused parts or gaps: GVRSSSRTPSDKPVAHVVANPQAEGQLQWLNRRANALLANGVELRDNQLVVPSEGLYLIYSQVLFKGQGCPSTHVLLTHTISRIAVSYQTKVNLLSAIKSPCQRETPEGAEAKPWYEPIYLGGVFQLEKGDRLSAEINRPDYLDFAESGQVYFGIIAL

Target: T1, TNF-alpha (Homo sapiens, UniProt P01375)
T1 construct: Construct 2 consisted of a His-tag, a spacer, TEV cleavage site and the soluble form of TNF-alpha; His-tag (hexahistidine) (N, cleaved yes); spacer GSGGSG (N, cleaved yes); TEV cleavage site (ENLYFQG) (N, cleaved yes); made in house; host or cells: cell-free expression (RTS 100 HY Cell Free Expression kit, 5 Prime), then cleavage with HaloTEV
Assay: Testing of antibody fragment binding on beads (anti-TNF-alpha-FITC, epifluorescence microscopy)
Settings: beads treated with cleaved TNF-alpha supernatant 1 hour, detected with anti-TNF-alpha-FITC antibody
Procedure: Equipment: • Epifluorescence microscope with camera (Zeiss Axioskop)
Reagents and supplies: • Wash buffer (PBS+20 mM Imidazole+0.05% Tween20) • anti-TNF-alpha-FITC antibody (Abcam, ab65099) • Microscope slides (Fisher Scientific) • Cover slips (CapitolBrand M3453-2222, 22 mm Length, 22 mm Width, #1 Thick) • Protein and DNA loaded bi-functional beads (scFv and control) • cleaved TNF-alpha supernatant
1. Beads with expressed scFv or control protein were treated with the cleaved TNF-alpha supernatant for 1 hour.
2. Beads were washed twice with wash buffer
3. Beads were incubated for 1 hour in wash buffer containing 1 mg anti-TNF-alpha-FITC antibody
4. Beads from the scFv and control samples were dispensed separately onto microscope slides and covered with cover slips.
5. Photomicrographs were captured using an epifluorescence microscope with an attached camera.
6. The photomicrographs were analyzed using CellProfiler software to determine the integrated fluorescence intensity of each bead detected.

B1: scFv: His-tag, spacer, TEV site, spacer, single-chain antibody fragment with variable sequence known to bind TNF-alpha, SEQ ID NO: 12 (protein)
scFv: MHHHHHHGSGGSGENLYFQGGSGGSGDIQMTQSPSSLSASVGDRVTITCKASQNVGTNVAWYQQKPGKAPKALIYSASFLYSGVPYRFSGSGSGTDFTLTISSLQPEDFATYYCQQYNIYPLTFGQGTKVEIKGGGGSGGGGSGGGGSGGGGSEVQLVESGGGLVQPGGSLRLSCAASGYVFTDYGMNWVRQAPGKGLEWMGWINTYIGEPIYADSVKGRFTFSLDTSKSTAYLQMNSLRAEDTAVYYCARGYRSYAMDYWQQGTLVTVSS
Binding of bead-expressed protein to TNF-alpha (bead fluorescence intensity): binds to TNF-alpha
